According to PubChem BioAssay (NCATS):
Several values for one entry are separate records, joined by “and”; a condition that tells them apart may be missing. Equal values may be shown once. Only a part is listed here, and it is no random draw. Records with an inconclusive call do not appear. Activity calls are given as the source filed them. Unless noted, the call rests on the fitted dose curve; in most records, active means well fitted curve in the direction sought with a large enough effect; inconclusive means small, poorly fitted or top-dose-only effect, or another doubt; inactive means no such curve, though single readings can be large; an effect the other way counts as inactive or inconclusive.

Sequences of proteins named here, by UniProt entry; tags and fusion partners are left off.
UniProt Q9R1A7, whole entry: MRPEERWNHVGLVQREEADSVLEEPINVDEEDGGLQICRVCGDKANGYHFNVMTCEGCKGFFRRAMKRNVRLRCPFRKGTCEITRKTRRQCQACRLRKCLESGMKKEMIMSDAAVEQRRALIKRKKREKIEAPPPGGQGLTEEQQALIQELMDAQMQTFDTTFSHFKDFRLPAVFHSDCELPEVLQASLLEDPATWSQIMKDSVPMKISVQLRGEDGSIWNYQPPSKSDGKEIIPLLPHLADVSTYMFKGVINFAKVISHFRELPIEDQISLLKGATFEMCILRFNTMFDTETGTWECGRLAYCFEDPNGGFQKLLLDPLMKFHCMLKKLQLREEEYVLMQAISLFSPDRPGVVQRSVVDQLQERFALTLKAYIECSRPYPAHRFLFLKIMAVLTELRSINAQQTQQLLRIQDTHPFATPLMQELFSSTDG

Tests used:
[1] = test system: UISO; experiment: qHTS assay to identify novel small-molecules to repurpose for Merkel cell carcinoma treatment (AID 1296009); details: MCC and control cell lines, CellTiter-Glo viability, 72 h; at 92.7 µM (top of the series); further: on the % scale 0 is the no-effect control and ±100 the full control effect; nearly all actives have a fitted effect of over 60% in size
Method in brief: (§1)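 Dose-response viability screen; 72 hr exposure at 37 degree celsius; CellTiter-Glo added, 10 min room temperature, luminescence read; RLUs scaled between no-cell and DMSO wells.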

[2] = test system: WaGa; experiment: as above; details: MCC and control cell lines, CellTiter-Glo viability, 72 h; at 92.7 µM (top of the series)
Method in brief: as §1

[3] = test system: C33A; experiment: Primary qHTS to identify gynecologic anti-cancer compounds using libraries of approved drugs and bioactive compounds (AID 1345084); details: Gynecologic cancer cell panel viability, ATPlite luminescence, 48 h; at 116 µM (top of the series) unless noted; further: on the % scale 0 is the no-effect control and ±100 the full control effect; nearly all actives have a fitted effect of over 55% in size
Method in brief: (§2)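 48 h compound exposure at 37 C, 5% CO2; five-point qHTS. ATPlite luminescence readout of cell ATP.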

[4] = test system: CAOV3; experiment: as above; details: Gynecologic cancer cell panel viability, ATPlite luminescence, 48 h; at 116 µM (top of the series)
Method in brief: as §2

[5] = test system: CASKI; experiment: as above; details: Gynecologic cancer cell panel viability, ATPlite luminescence, 48 h; at 116 µM (top of the series) unless noted
Method in brief: as §2

[6] = test system: Es-2; experiment: as above; details: Gynecologic cancer cell panel viability, ATPlite luminescence, 48 h; at 116 µM (top of the series) unless noted
Method in brief: as §2

[7] = test system: HeLa; experiment: as above; details: Gynecologic cancer cell panel viability, ATPlite luminescence, 48 h; at 116 µM (top of the series) unless noted
Method in brief: as §2

[8] = test system: Hek293T; experiment: as above; details: Gynecologic cancer cell panel viability, ATPlite luminescence, 48 h, control line for the selectivity index; at 57.5 µM (top of the series) unless noted
Method in brief: as §2

[9] = test system: JEG-3; experiment: as above; details: Gynecologic cancer cell panel viability, ATPlite luminescence, 48 h; at 116 µM (top of the series) unless noted
Method in brief: as §2

[10] = test system: OV90; experiment: as above; details: Gynecologic cancer cell panel viability, ATPlite luminescence, 48 h; at 57.5 µM (top of the series) unless noted
Method in brief: as §2

[11] = test system: PA-1; experiment: as above; details: Gynecologic cancer cell panel viability, ATPlite luminescence, 48 h; at 116 µM (top of the series) unless noted
Method in brief: as §2

[12] = test system: Tov-21-G; experiment: as above; details: Gynecologic cancer cell panel viability, ATPlite luminescence, 48 h; at 116 µM (top of the series) unless noted
Method in brief: as §2

[13] = test system: Tov112D; experiment: as above; details: Gynecologic cancer cell panel viability, ATPlite luminescence, 48 h; at 116 µM (top of the series) unless noted
Method in brief: as §2

[14] = Drug repurposing screens with cells derived from glioblastoma tumor samples (AID 1345199); details: GBM patient neurospheres viability, ATP luminescence, 48 h; Potency: tumour line A; series mostly up to 99.2 µM; further: on the % scale 0 is the no-effect control and ±100 the full control effect; nearly all actives have a fitted effect of over 40% in size
Method in brief: (§3)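 Primary testing used CD133+ neurospheres from four GBM patients, seven concentrations, 48 h exposure and ATP-based viability; confirmation added three slower-growing patient lines.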

[15] = test system: astro; experiment: as above; details: viability, ATP luminescence, 48 h; at 91.6 µM (top of the series) unless noted
Method in brief: as §3

[16] = test system: SKOV3; experiment: Primary qHTS to identify gynecologic anti-cancer compounds using libraries of approved drugs and bioactive compounds (AID 1345084); details: Gynecologic cancer cell panel viability, ATPlite luminescence, 48 h; at 57.5 µM (top of the series) unless noted; further: on the % scale 0 is the no-effect control and ±100 the full control effect; nearly all actives have a fitted effect of over 55% in size
Method in brief: as §2

[17] = biological target: Nuclear receptor subfamily 1 group I member 2 (Rattus norvegicus) (UniProt Q9R1A7); experiment: qHTS assay for small molecule activators of the rat pregnane X receptor (rPXR) signaling pathway (AID 651751; call rule not given here; further: 0% is about no effect); details: rPXR reporter cells, luciferase (One-Glo), 24 h
[18] = qHTS assay for small molecule activators of the human pregnane X receptor (PXR) signaling pathway (AID 720659; call rule not given here; further: 0% is about no effect); details: DPX-2 HepG2 CYP3A4-luciferase, 24 h; at 92.3 µM (top of the series)

CCC(=O)N(c1ccccc1)C1(COC)CCN(CCn2nnn(CC)c2=O)CC1
inactive: activity change, negative = cytotoxicity [1] -4.93% | activity change, negative = cytotoxicity [2] -9.07% | activity change, negative = cytotoxicity [3] 1.21% | activity change, negative = cytotoxicity [4] 1.48% | activity change, negative = cytotoxicity [5] 7.69% | activity change, negative = cytotoxicity [6] 2.01% | activity change, negative = cytotoxicity [7] -15.8% | activity change, negative = cytotoxicity [8] -3.21% [at 116 µM] | activity change, negative = cytotoxicity [9] 6.61% | activity change, negative = cytotoxicity [10] -17.1% [at 116 µM] | activity change, negative = cytotoxicity [11] 8.05% | activity change, negative = cytotoxicity [12] -0.614% | activity change, negative = cytotoxicity [13] -7.23% | Potency [14] | activity, negative = cell killing [15] -5.11%

CCC(=O)N(c1ccccc1)C1CCN(CCc2ccccc2)CC1
inactive: activity, negative = cell killing [15] -17.1% [at 45.9 µM]

CN(CCCl)CCCl
inactive: activity change, negative = cytotoxicity [3] -6.64% [at 57.5 µM] | activity change, negative = cytotoxicity [5] 2.38% [at 57.5 µM] | activity change, negative = cytotoxicity [6] 8.75% [at 57.5 µM] | activity change, negative = cytotoxicity [7] -4.23% [at 57.5 µM] | activity change, negative = cytotoxicity [8] -2.98% | activity change, negative = cytotoxicity [9] -27.3% [at 57.5 µM] | activity change, negative = cytotoxicity [10] 12.6% | activity change, negative = cytotoxicity [11] -18.8% [at 57.5 µM] | activity change, negative = cytotoxicity [16] 0% | activity change, negative = cytotoxicity [12] -11.1% [at 57.5 µM] | activity change, negative = cytotoxicity [13] 12.9% [at 57.5 µM] | max response [17] -22.1% | activation [18] -4.67%

CCC(=O)N(c1ccccc1)C1(COC)CCN(CCc2cccs2)CC1
inactive: activity change, negative = cytotoxicity [3] -16.7% | activity change, negative = cytotoxicity [4] -14.7% | activity change, negative = cytotoxicity [5] 0.916% | activity change, negative = cytotoxicity [6] -0.476% | activity change, negative = cytotoxicity [7] -26% | activity change, negative = cytotoxicity [9] -4.51% | activity change, negative = cytotoxicity [11] -4.56% | activity change, negative = cytotoxicity [16] -8.27% [at 116 µM] | activity change, negative = cytotoxicity [12] -1.78% | activity change, negative = cytotoxicity [13] -22.9% | activity, negative = cell killing [15] -29%

O=[N+]([O-])C(Cl)(Cl)Cl
inactive: max response [17] 3.17% and 1% | activation [18] -4.42% and 8.31%
